Molecular target: Acetylcholinesterase (Torpedo californica, UniProt P04058)
Assay: Inhibition of Pacific electric ray AChE using acetylthiocholine iodide as substrate preincubated for 5 mins followed by substrate addition measured after 2 mins by Ellman's method

Cc1c(OC(=O)N(C)C)c(=O)ccn1-c1ccccc1
IC50: 48.8 µM

— ChEMBL document CHEMBL5214927, “Recent advance on carbamate-based cholinesterase inhibitors as potential multifunctional agents against Alzheimer's disease” (Eur J Med Chem, 2022)
